Molecular target: Cyclin-dependent kinase 2/cyclin A (Homo sapiens, UniProt P24941)
Test: Inhibition of cyclin-dependent kinase 2-cyclin A3 (CDK2)
Assay type: protein-complex assay

IC50: 2300 nM
Compound: Clc1cccc(Nc2nc(OCC3CCCCC3)c3[nH]cnc3n2)c1
